{
  "source": "patent US11866720B2",
  "about": "“Transgenic or non-transgenic plants with mutated protoporphyrinogen oxidase having increased tolerance to herbicides” (priority 2013, dated 2024)",
  "test_system": "transgenic Arabidopsis thaliana plants expressing wildtype or mutated PPO",
  "assay": "Greenhouse tolerance test of transgenic T1 Arabidopsis plants (phytotox / injury rating 0-100)",
  "format": "in vivo",
  "conditions": "repetitions 1, 2",
  "note": "“And” between values parts separate entries of the source, which are not always exact repeats. Equal entries are not always repeated.",
  "data": [
    {"compound": "C#CCN1C(=O)C(F)(F)Oc2cc(F)c(-n3c(=O)n(C)c(=S)n(C)c3=O)cc21", "values": [
      {"measurement": "phytotox value, scale 0-100", "setting": "AMATU_PPO2 L397D, 75 g ai/ha, listed as BAS 850H", "value": "70 and 80 and 60"},
      {"measurement": "phytotox value, scale 0-100", "setting": "AMATU_PPO2 L397D, 300 g ai/ha, listed as BAS 850H", "value": "90 and 100 and 70"}
    ]},
    {"compound": "CC(C)N(C)S(=O)(=O)NC(=O)c1cc(-n2c(=O)cc(C(F)(F)F)n(C)c2=O)c(F)cc1Cl", "note": "[Saflufenacil, saflufenacil]", "values": [
      {"measurement": "phytotox value, scale 0-100", "setting": "AMATU_PPO2 F420V, 200 g ai/ha, listed as Kixor", "value": "90 and 80"}
    ]}
  ]
}
